Protein sequences, listed by entry. Tags and fused reporters are not part of them. Residues count along the entry.
UniProt Q8TDV5, 1-308 limits assumed: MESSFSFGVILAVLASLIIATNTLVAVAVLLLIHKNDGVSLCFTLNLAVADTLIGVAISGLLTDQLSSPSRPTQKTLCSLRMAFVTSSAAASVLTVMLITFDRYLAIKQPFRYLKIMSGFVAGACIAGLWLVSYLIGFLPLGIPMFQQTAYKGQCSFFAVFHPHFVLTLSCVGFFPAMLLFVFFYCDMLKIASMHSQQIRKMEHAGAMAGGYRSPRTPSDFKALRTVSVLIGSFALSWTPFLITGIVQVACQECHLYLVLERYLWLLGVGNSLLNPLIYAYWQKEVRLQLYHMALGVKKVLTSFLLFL

In patent publication US9006228B2 (Merck Sharp & Dohme Corp., priority 2011, dated 2015):

Biological target: human GPR119 (Homo sapiens, UniProt Q8TDV5)
Test: Measurement of GPR119 signaling (cAMP assay; LANCE kit or HTRF) in HEK293 cells stably transfected with human GPR119
Conditions: read-out: GPR119 Human EC50; agonist-stimulated cAMP in HEK293 cells expressing human GPR119

CCc1cnc(N2CCC([C@H]3C[C@H]3COCc3ccc(-c4cncs4)cc3)CC2)nc1
EC50: 2.2 nM
